{
  "source": "paper PMC9502993",
  "about": "(Pharmaceuticals, 2022)",
  "system": "Salmonella typhimurium strains TA98 and TA100",
  "assay": "Ames MPF 98/100 test with or without liver S9 homogenate",
  "conditions": "TA98 and TA100, with and without S9, all conditions",
  "data": [
    {"smiles": "COC(=O)[C@H]1[C@@H](O)[C@@]2(O)c3c(OC)cc(O[C@@H]4O[C@@H]([C@H](O)CO)CO[C@H]4OC)cc3O[C@@]2(c2ccc(OC)cc2)[C@@H]1c1ccccc1", "note": "[silvestrol]", "values": [
      {"measurement": "mutagenic potential (Ames test)", "value": "negative"}
    ]}
  ]
}
